Measurements published in patent US20230175069A1, “COMPOSITIONS AND METHODS FOR DETECTING GENE FUSIONS OF ESR1 AND CCDC170 FOR DETERMINING INCREASED RESISTANCE TO ENDOCRINE THERAPY AND FOR CANCER TREATMENT” (UNIVERSITY OF PITTSBURGH-OF THE COMMONWEAL TH SYSTEM OF …, priority 2020, published 2023).

How the values were obtained:
[1] = tested on: T47D cells ectopically expressing ESR1-CCDC170 variants; settings: estrogen-deprived; tamoxifen 0.5 µM plus lapatinib 0.5 µM or dasatinib 0.05 µM
[2] = tested on: T47D xenograft tumors expressing E2-E7
[3] = tested on: T47D xenograft tumors expressing vector; settings: vector group; tamoxifen 25 ug/kg subcutaneously 5 days/week
[4] = tested on: T47D xenograft tumors expressing E2-E10

Row | SMILES | colony formations, tamoxifen plus inhibitor compared to tamoxifen monotreatment [1] | regression-free survival (time to tumor halving), Kaplan-Meier ([2]; E2-E7-overexpressing tumors treated with tamoxifen compared to vector control tumors) | response of xenografts to tamoxifen treatment ([2]; E2-E7 expressing T47D xenografts) | decrease in tumor size ([2]; E2-E7 expressing tumors, tamoxifen 25 ug/kg subcutaneously 5 days/week) | decrease in tumor size [3] | regression-free survival (time to tumor halving), Kaplan-Meier ([4]; E2-E10-overexpressing tumors treated with tamoxifen compared to vector control tumors) | response of xenografts to tamoxifen treatment ([4]; E2-E10 expressing T47D xenografts) | change in tumor volumes ([4]; E2-E10 expressing tumors, tamoxifen 25 ug/kg subcutaneously 5 days/week)
1 | Cc1nc(Nc2ncc(C(=O)Nc3c(C)cccc3Cl)s2)cc(N2CCN(CCO)CC2)n1 [dasatinib] | significantly reduced | – | – | – | – | – | – | –
2 | CS(=O)(=O)CCNCc1ccc(-c2ccc3ncnc(Nc4ccc(OCc5cccc(F)c5)c(Cl)c4)c3c2)o1 [lapatinib] | significantly reduced | – | – | – | – | – | – | –
3 | CC/C(=C(\c1ccccc1)c1ccc(OCCN(C)C)cc1)c1ccccc1 [tamoxifen] | – | significantly worse regression-free survival | partial response | 14% | 51% | significantly worse regression-free survival | stable/progressive disease | almost two folds increase in tumor volumes
